Laboratory results published in ChEMBL document CHEMBL4251566 (Eur J Med Chem, 2018).

Legend:
[1] = target: T1, Tyrosine-protein kinase JAK3 (Homo sapiens) (UniProt P52333); experiment: Potency index, ratio of ibrutinib IC50 to compound IC50 for inhibition of recombinant N-terminal GST-tagged human JAK3 (781 to end residues) expressed in baculovirus infected Sf9 insect cells
T1 sequence (whole entry): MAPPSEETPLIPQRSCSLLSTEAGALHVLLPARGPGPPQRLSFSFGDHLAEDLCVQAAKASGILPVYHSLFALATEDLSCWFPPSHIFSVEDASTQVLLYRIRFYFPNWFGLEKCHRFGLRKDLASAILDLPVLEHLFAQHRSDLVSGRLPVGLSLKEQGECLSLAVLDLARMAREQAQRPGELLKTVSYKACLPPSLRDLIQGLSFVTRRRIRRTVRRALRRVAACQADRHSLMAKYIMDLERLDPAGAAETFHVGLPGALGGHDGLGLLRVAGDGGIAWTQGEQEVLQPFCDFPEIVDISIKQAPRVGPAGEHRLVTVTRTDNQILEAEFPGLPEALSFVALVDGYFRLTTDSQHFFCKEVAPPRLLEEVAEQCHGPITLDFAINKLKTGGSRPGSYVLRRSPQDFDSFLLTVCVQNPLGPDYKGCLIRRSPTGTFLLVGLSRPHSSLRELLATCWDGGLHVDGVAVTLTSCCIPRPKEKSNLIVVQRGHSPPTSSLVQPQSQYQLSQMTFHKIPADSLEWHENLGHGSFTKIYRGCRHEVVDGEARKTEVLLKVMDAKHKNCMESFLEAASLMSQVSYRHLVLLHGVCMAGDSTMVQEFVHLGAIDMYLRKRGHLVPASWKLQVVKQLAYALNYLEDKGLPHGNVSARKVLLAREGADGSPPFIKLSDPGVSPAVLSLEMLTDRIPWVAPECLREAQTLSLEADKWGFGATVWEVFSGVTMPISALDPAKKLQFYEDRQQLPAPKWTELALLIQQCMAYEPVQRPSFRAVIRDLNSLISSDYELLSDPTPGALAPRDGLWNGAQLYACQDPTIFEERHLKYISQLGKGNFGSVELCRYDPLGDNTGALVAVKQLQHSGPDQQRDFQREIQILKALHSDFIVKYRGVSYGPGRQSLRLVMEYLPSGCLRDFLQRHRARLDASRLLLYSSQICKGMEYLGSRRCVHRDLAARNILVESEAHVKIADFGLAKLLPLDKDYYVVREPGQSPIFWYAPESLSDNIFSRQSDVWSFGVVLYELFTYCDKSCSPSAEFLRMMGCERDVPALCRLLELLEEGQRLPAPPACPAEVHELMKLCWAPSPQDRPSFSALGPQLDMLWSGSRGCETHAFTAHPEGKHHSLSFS

[2] = target: T1, Tyrosine-protein kinase JAK3 (Homo sapiens); experiment: Potency index, ratio of spebrutinib IC50 to compound IC50 for inhibition of recombinant N-terminal GST-tagged human JAK3 (781 to end residues) expressed in baculovirus infected Sf9 insect cells
[3] = test system: Ramos; experiment: Antiproliferative activity against human Ramos cells after 72 hrs by CCK-8 assay; assay type: functional, cell-based

| SMILES | Ratio IC50 [1] | Ratio IC50 [2] | Activity [3] |
| --- | --- | --- | --- |
| C=CC(=O)Nc1cccc(Nc2nc(Nc3ccc(OCCCN4CCN(CC)CC4)c(Cl)c3)ncc2Cl)c1 | 17 | 40 | – |
| C=CC(=O)Nc1cccc(Nc2nc(Nc3ccc(OC)c(OCCCN4CCOCC4)c3)ncc2Cl)c1 | 17 | 40 | – |
| C=CC(=O)Nc1cccc(Nc2nc(Nc3ccc(OC)c(OCCCN4CCOCC4)c3)ncc2F)c1 | 17 | 40 | – |
| C=CC(=O)Nc1cccc(Nc2nc(Nc3ccc(OCC(=O)N4CCOCC4)c(Cl)c3)ncc2Cl)c1 | – | – | Dose-dependent effect |
| C=CC(=O)Nc1cccc(Nc2nc(Nc3ccc(OCCCN4CCOCC4)cc3)ncc2Cl)c1 | 17 | 40 | Dose-dependent effect |
